According to patent publication US11370779B2, “Pharmaceutical composition for preventing or treating acute myeloid leukemia or metastatic breast cancer” (PELEMED CO., LTD., priority 2017, dated 2022):

Tests used:
MV4;11 cells = assay: Cell viability, EZ-Cytox tetrazolium assay, MV4;11; assay type: cell-based, human; conditions: read-out: Ic50 (nM) MV4;11; Table 1; 72 hours; tested form: HCl
MDA-MB-231 = assay: Cell viability, EZ-Cytox tetrazolium assay, MDA-MB-231; conditions: read-out: GI50(nM) MDA-MB-231; 72 hours; tested form: 2HCl

Compound	IC50 (MV4;11 cells) [nM]	GI50 (MDA-MB-231) [nM]
O=C1Nc2ccc(C(=O)O)cc2/C1=C1/Nc2ccccc2/C1=N\OCCN1CCOCC1	1000	
O=C1Nc2ccccc2/C1=C1/Nc2ccccc2/C1=N\OCCNC1CCNCC1		320
O=C1Nc2ccc(F)cc2/C1=C1/Nc2ccc(F)cc2/C1=N\OCCNC1CCNCC1		972
O=C1Nc2ccc(F)cc2/C1=C1/Nc2ccccc2/C1=N\OCCNC1CCNCC1		362
